The values that follow are results of earlier work, collected in patent publication US20260014261A1, “TARGETED PROTEIN MODIFICATION” (Weatherwax Biotechnologies Corporation, priority 2022, published 2026).

Sequences of proteins named here, by UniProt entry; tags and fusion partners are left off. Residues count along the entry.
UniProt P40337, 54-213 limits assumed: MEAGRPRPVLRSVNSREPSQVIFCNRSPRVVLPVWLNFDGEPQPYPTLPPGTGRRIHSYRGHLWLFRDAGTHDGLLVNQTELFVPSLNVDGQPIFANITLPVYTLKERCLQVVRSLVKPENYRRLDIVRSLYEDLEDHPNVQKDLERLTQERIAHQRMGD
UniProt Q15369, 17-112 partner limits assumed: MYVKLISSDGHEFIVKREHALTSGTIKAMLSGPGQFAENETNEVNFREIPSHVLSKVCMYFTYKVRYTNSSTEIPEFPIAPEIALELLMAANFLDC
UniProt Q15370, 1-104 partner limits assumed: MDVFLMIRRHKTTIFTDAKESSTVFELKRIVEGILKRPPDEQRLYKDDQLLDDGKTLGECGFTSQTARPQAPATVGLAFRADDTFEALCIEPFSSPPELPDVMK

For this data set, the target named is VHL (Homo sapiens, UniProt P40337). Particulars: read-out: binding affinity (Kd) for VHL.

In the case of `Cc1ncsc1-c1ccc(CNC(=O)[C@@H]2C[C@@H](O)CN2C(=O)[C@@H](N)C(C)(C)C)cc1`, the Kd (as a rule, the constant that tells how readily two partners part at equilibrium) is 50 nM.
